Data from US20250136593A1, “DEGRADATION AGENT AND USE THEREOF” (HITGEN INC., priority 2021, published 2025).

By UniProt entry, the sequences of proteins in these tests, tags left out.
UniProt Q07817, whole entry: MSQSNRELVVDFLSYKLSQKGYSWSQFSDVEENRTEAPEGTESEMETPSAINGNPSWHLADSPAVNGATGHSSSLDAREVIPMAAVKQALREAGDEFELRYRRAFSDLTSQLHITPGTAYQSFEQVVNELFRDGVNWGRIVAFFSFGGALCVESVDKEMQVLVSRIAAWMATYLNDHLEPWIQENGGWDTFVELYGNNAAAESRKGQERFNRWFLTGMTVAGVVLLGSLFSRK
UniProt Q96SW2, whole entry: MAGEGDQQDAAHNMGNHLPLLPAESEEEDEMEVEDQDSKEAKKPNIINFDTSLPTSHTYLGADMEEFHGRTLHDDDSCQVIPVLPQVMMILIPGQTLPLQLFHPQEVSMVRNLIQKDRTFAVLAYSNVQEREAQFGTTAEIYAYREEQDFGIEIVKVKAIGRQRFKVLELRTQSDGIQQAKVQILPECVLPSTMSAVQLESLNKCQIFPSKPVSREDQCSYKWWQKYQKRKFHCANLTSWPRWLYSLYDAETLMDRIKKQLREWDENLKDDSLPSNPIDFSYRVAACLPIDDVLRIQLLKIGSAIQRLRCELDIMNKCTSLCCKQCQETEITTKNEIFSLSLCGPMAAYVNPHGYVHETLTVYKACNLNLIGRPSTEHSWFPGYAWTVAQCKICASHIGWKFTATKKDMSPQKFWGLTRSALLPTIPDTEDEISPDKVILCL
UniProt Q16531, whole entry partner: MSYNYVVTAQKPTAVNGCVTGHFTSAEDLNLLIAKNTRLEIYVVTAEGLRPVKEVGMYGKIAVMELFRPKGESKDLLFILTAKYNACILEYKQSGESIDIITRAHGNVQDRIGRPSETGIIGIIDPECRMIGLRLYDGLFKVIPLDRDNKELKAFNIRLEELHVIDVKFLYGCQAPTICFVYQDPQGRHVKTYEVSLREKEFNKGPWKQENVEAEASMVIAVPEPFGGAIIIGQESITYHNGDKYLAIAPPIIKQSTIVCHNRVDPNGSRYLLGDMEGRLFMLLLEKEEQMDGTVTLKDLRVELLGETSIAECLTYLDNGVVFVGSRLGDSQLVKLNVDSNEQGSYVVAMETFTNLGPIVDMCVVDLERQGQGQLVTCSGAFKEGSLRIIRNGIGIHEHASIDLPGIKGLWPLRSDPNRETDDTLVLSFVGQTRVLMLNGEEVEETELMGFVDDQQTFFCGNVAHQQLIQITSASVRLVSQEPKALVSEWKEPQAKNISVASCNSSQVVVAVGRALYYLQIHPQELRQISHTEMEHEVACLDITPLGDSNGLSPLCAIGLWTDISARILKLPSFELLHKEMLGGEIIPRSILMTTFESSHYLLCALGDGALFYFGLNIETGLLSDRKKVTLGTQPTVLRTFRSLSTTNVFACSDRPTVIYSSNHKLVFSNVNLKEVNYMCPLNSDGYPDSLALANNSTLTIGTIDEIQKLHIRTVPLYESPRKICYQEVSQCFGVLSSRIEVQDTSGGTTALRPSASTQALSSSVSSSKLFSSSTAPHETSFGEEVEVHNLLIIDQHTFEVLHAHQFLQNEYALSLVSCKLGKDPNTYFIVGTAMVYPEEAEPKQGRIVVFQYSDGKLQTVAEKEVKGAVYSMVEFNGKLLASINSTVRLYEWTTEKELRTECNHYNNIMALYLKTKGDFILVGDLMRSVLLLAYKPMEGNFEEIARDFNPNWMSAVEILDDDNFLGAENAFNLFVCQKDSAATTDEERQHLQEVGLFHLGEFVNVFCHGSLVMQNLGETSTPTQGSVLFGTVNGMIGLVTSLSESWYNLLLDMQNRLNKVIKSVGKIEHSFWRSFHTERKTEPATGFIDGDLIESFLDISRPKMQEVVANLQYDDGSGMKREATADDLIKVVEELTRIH

How the values were obtained:
[1] = target: BCL-XL protein in MOLT-4 cells (Homo sapiens, UniProt Q07817); experiment: Degradation effect on BCL-XL protein in MOLT-4 cells by Western Blot; settings: read-out: DC50 concentration for BCL-XL protein degradation, 24 hours incubation, corrected by β-actin
Protocol: Experimental Example 6. Experiment to Evaluate Degradation Effect of Compound on BCL-XL Protein in MOLT-4 Cells by Western Blot Method
SDS-PAGE gel (4-12%) (Genscript), PMSF 100 mM (Biyotime), Cocktail 100× (Biyotime), P/S, RPMI medium modified (Hyclone), FBS (Corning), 4× loading buffer (Thermo), Bcl-xL (54H6) Rabbit mAb (CST), Anti-rabbit IgG-HRP (CST), Anti-β-actin-HRP (Abcam), RIPA (Biyotime), Tween-20, MOLT-4 cell (ATCC), BCA Protein Assay Kit (TIANGEN), Immobilon Western Chemilunescent HRP Substrate (Millipore). […]
2) Protein extraction: After the compound and the cells were co-incubated for 24 hours, the cells were collected and placed in a 1.5 mL centrifuge tube, washed twice with ice-cold PBS, the supernatant was discarded, then 150 μL of RIPA lysis buffer was added and lysis was carried out on ice for 30 minutes; then the cell lysate was centrifuged in a low-temperature centrifuge at 15,000 rpm for 10 minutes, and the supernatant was collected; and BCA Protein Assay Kit was used to quantify the protein in the resulting cell lysate supernatant. […]

[2] = target: ternary complex between BCL-XL and CRBN-DDB1 (Homo sapiens, UniProt Q07817+Q96SW2); experiment: Compound-induced formation of ternary complex between BCL-XL and CRBN-DDB1 by AlphaLISA; settings: peak signal; 60 nM Strep-BCL-XL and 60 nM His-CRBN/DDB1
Protocol: Experimental Example 4, Detection of Compound-Induced Formation of Ternary Complex Between BCL-XL and CRBN-DDB1 by AlphaLISA Method
Na2HPO4(Sigma), NaH2PO4(Sigma), sodium chloride (Sigma), Tween-20 (Sigma), AlphaLISA®Nikel Chelate Acceptor beads (PerkinElmer), Strep-Tactin® Alpha Donor beads (PerkinElmer), Assay plate (Corning), Strep-BCl-XL (HitGen), His-CRBN/DDB1 (HitGen).
DMSO was used to dissolve the dry powder of the test compound to obtain a 10.00 mM solution. The instrument ECHO was used to perform gradient dilution of the compound, which was then added to a 384-well reaction plate (Corning, Cat #3824), so that the final concentration of DMSO in the entire reaction system (10.0 μL) was less than 1%, and the same amount of DMSO was added and used as a control.
Strep-BCl-XL and His-CRBN/DDB1 proteins were dissolved in buffer (10 mM NaH2PO4, 40 mM Na2HPO4, 150 mM sodium chloride, 0.03% Tween20, pH=7.4) to obtain a protein mixture of 60 nM Strep-BCL-XL and 60 nM His-CRBN/DDB1, the protein mixture (5ul/well) was added to the 384-well plate in which the compound had been added, and incubated at room temperature for 30 minutes, then 5 μl of a detection mixture with 50 μg/ml AlphaLISA®Nikel Chelate Acceptor beads and 50 μg/ml Strep-Tactin® Alpha Donor beads was added, and incubated at room temperature for 2 hours; and then a microplate reader was used to detect AlphaLISA signal. […]

MOLT-4 cells = experiment: Inhibitory activity on MOLT4 cell proliferation by Cell Titer-Glo method; settings: read-out: IC50 concentration for inhibiting MOLT-4 cells, 72 hours incubation
Protocol: Experimental Example 5, Evaluation Experiment of Inhibitory Activity of Compound on MOLT4 Cell Proliferation by Cell Titer-Glo Method
RPMI medium modified (Hyclone), FBS (Corning), Dimethyl Sulfoxide, P/S, CellTiter-Gbo Luminescent Cell Viability Assay (Promega), MOLT-4 cell (ATCC).
MOLT-4 cells were cultured in monolayer in vitro in an incubator containing 5% CO2 air at 37° C. The culture medium was RPMI 1640 with 10% FBS and 1% P/S. 15 μL of MOLT4 cells, containing 5×10^4 cells per ml, was inoculated to a 384-well plate (Corning, 3707), 750 cells/well, and incubated at 37° C. and 5% CO2 for 30 minutes. […]
The 384-well plate was taken out from the cell culture incubator and allowed to stand at room temperature, equilibrated for 20 to 30 minutes, and then 25 μl of Cell Titer-Glo detection reagent was added to each reaction well, lysed on a shaker for 2 minutes, incubated for 10 minutes, and BMG PHERAStar (Luminescence) was used for reading.
The inhibition rate was calculated based on the luminescence signals: the average value of the negative control (maximum signal control) and the blank control (minimum signal control) was first calculated, then the inhibition rates of the compound at different concentrations for the cells were calculated as follows: […]

| DC50 [1] [µM] | AlphaLISA signal (PROTAC ternary complex signal intensity) [2] | IC50 (MOLT-4 cells) [µM] | Compound |
| --- | --- | --- | --- |
| 100 to 200 | + |  | O=C1CCC(N2C(=O)c3cccc(OCCCCN4CCN(CC#Cc5ccc(/C=C/c6ccc(C(=O)N7CCc8cnc(-c9cnc%10ccccc%10c9)nc8C7)cc6)cc5)CC4)c3C2=O)C(=O)N1 (centres unmarked) |
| < 1 | + | 100 to 200 | O=C1CCC(N2Cc3cc(C#CCN4CCN(CC#Cc5ccc(/C=C/c6ccc(C(=O)N7CCc8cnc(-c9cnc%10ccccc%10c9)nc8C7)cc6)cc5)CC4)ccc3C2=O)C(=O)N1 (centres unmarked) |
